# Assay results: PubChem BioAssay AID2426 (Johns Hopkins Ion Channel Center, 2010)
# The list shows a part of the results, in another mix than the full data. Calls of active or inactive are those of the source.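 How the source made its calls: active means fluorescence ratio normalized to control raised more than 50% in primary screen plus both repeat runs; inactive means the rest.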
# System: TRPC4 beta (transient receptor potential cation channel C4), mouse
# Test: TRPC4 cation channel opening, retest – cell-based, Fluo4 calcium, HEK293 TRPC4beta/mu-opioid, duplicates, 10 µM, confirmation (AID 2426)
# Details: Fluo4 calcium fluorescence, at 10 µM
row,SMILES,outcome
1,CN(C)CCOC(=O)C(O)(c1ccccc1)C1CCCC1 (configuration not stated),inactive
2,CCN(CC)CCCOC(=O)C(O)(c1ccccc1)c1ccccc1,inactive
